Each structure is given as a SMILES string. The entries are a selection whose mix differs from that of the whole data set. Results filed as inconclusive are left out. Where a call stands in place of a potency, no number is given. Calls of active or inactive are those of the source. Calls come from the whole dose curve; as a rule, active = well fitted activation curve with a large enough effect in the repeat runs; inconclusive = weak or mixed curves; inactive = flat fitted curve, though single readings scatter.

Drawing on PubChem BioAssay (Tox21), this text covers Potency for 20 compounds.
Potency is the fitted concentration of half-maximal effect.

This experiment is described as follows: A CellTox Green Cytotoxicity Assay to monitor cytotoxicity in HEK293 cells - 16 hour (AID 1224888). Note: nearly all actives have a fitted effect of over 35% in size. Conditions: CellTox Green fluorescence; series mostly up to 76.8 µM. From the text:
National Center for Advancing Translational Sciences [NCATS]
NIH Chemical Genomics Center [NCGC]
U.S. Environmental Protection Agency [EPA]
National Institutes of Environmental Health Sciences [NIEHS]
National Toxicology Program [NTP]
Cell-based models are critical for drug discovery. Determining the natural cytotoxic effects resulting from test compounds is an essential research activity. A CellTox Green Cytotoxicity Assay to monitor cytotoxicity in real time of continues cell culture during 40 hours of the compound treatment was used to screen Tox21 10K library compounds in Hek293 cells. CellTox Green Cytotoxicity Assay is a nonlytic, homogeneous, biofluorescent method to measure cytotoxicity in cell culture after experimental manipulation. The assay system uses a proprietary asymmetric cyanine dye that is excluded from viable cells but preferentially stains the dead cell's DNA. […] Viable cells produce no appreciable increases in fluorescence. Therefore, the fluorescence signal produced by the binding interaction with dead cell DNA is proportional to cytotoxicity.
The mixture of Hek293 cell suspension and reagents were dispensed at 600cells/6 ul/well in 1536-well tissue culture treated black solid bottom plates using a Multidrop dispenser. After the assay plates were incubated at a 37 C/5% CO2 incubator for 5 hours, 23 nL of compounds dissolved in DMSO, positive and negative controls was transferred to the assay plate by a pintool work station. The plates were incubated at 37 C for 40 hours. The fluorescence intensity were measured at 0h, 8h, 16h, 24h, 32h and 40h time points using ViewLux plate reader during compound treatment.
Turning to `Nc1cc([N+](=O)[O-])cc([N+](=O)[O-])c1O`, the Potency result was “inactive”.
Consider `CCOP(=O)(CC)Oc1ccc([N+](=O)[O-])cc1` (stereo not given), for which the Potency result was “inactive”.
To `CC(C)OP(C)(=O)OC(C)C` belongs “inactive”; to `CC(C)N(CCO)C(C)C`, “inactive”.
The result for `COc1ccc([N+](=O)[O-])cc1[N+](=O)[O-]` reads “inactive”; that for `[NH4+].[O-][Cl+3]([O-])([O-])[O-]`, “inactive”.
The result for `Cc1cccc([N+](=O)[O-])c1[N+](=O)[O-]` reads “inactive”; that for `OCCSCCO`, “inactive”.
As to `O=[N+]([O-])c1cccc([N+](=O)[O-])c1`, the Potency was active: 45.5 µM.
The result for `O=[N+]([O-])OCC(CO[N+](=O)[O-])(CO[N+](=O)[O-])CO[N+](=O)[O-]` reads “inactive”.
The result for `C/C1=C2N=C(/C=C3N=C(/C(C)=C4\[N-][C@@](C)([C@@H]5N=C1[C@](C)(CCC(=O)NC[C@@H](C)OP(=O)([O-])O[C@H]1[C@@H](O)[C@@H](n6cnc7cc(C)c(C)cc76)O[C@@H]1CO)[C@H]5CC(N)=O)[C@@](C)(CC(N)=O)[C@@H]4CCC(N)=O)[C@@](C)(CC(N)=O)[C@@H]\3CCC(N)=O)C(C)(C)[C@@H]/2CCC(N)=O.[C-]#N.[Co+3]` reads “inactive”; that for `CP(=O)(O)OCCC[Si](O)(O)O`, “inactive”; that for `CCOP(=O)(CC)OCC`, “inactive”.
The result for `N=C(N)N[N+](=O)[O-]` reads “inactive”; that for `Cc1ccc([N+](=O)[O-])cc1[N+](=O)[O-]`, “inactive”; that for `CCN(CC)CCCl`, “inactive”.
In the case of `N#CBr`, the Potency result is “inactive”.
To `COP(C)(=O)OC` belongs “inactive”; to `Cc1c([N+](=O)[O-])cccc1[N+](=O)[O-]`, “inactive”.
The result for `CN(C)CCCl` reads “inactive”.
